Test results taken from paper PMC7673040 (Nature Communications, 2020).
One block for each binder: values may come before it.

Target: human nascent polypeptide-associated complex (NAC), unlabeled (human, UniProt Q13765 1-215; P20290-2 1-162)
Experiment: other fluorescence titration; equilibrium FRET titrations of SRP^TMR into 1 nM RNC^BDP with unlabeled NAC premixed (0-400 nM for RNC(ss), 0-62.5 nM for RNC(ssmt)); global fit to the anti-cooperative co-binding model, Eq. (8); 25 °C, Assay buffer with 1 mg/mL BSA
Conditions: both partners purified

Kd: 1.2 nM
B1: ribosome-nascent chain complex bearing the first ~90 amino acids of pPL(ssmt), labelled with BODIPY-FL on the nascent chain (complex)
chain: MDSKGSSQKGSKLLLRRVVSNLLLCQGVVSTPVCPNGPGNCQVSLRDLFDRAVMVSHYIHDLSSEMFNEFDKRYAQGKGFITMALNSCHTV
modifications: axial-trans-cyclooct-2-en-L-Lysine (TCOK) at an amber codon one residue upstream of the signal sequence, labelled with tetrazine-conjugated BODIPY-FL (BDP)

Kd: 1.4 nM
B2: ribosome-nascent chain complex bearing the first ~90 amino acids of pPL(ss), labelled with BODIPY-FL on the nascent chain (complex)
chain: MDSKGSSQKGSKLALALLLLLLALALCQGVVSTPVCPNGPGNCQVSLRDLFDRAVMVSHYIHDLSSEMFNEFDKRYAQGKGFITMALNSCHTV
modifications: axial-trans-cyclooct-2-en-L-Lysine (TCOK) at an amber codon one residue upstream of the signal sequence, labelled with tetrazine-conjugated BODIPY-FL (BDP)
